The record followed here is ChEMBL document CHEMBL1137608, “Design of a potent reactivator of tabun-inhibited acetylcholinesterase--synthesis and evaluation of (E)-1-(4-carbamoylpyridinium)-4-(4-hydroxyiminomethylpyridinium)-but-2-ene dibromide (K203)” (2007).

As usually defined, the LD50 is the dose at which mortality reaches 50%. Low values mean greater toxicity, high ones lower toxicity.

The series relates to Rattus norvegicus. Kind of series: Toxicity in intramuscular dosed rat after 24 hrs. Particulars: in vivo, im.

For the compound `O/N=C/c1cc[n+](CCC[n+]2ccc(/C=N/O)cc2)cc1.[Br-].[Br-]`, the LD50 is 150 mg/kg.

`O/N=C/c1cc[n+](COC[n+]2ccc(/C=N/O)cc2)cc1.[Cl-].[Cl-]`: the median lethal dose (LD50) was 211 mg/kg.
